{"sequences": {"note": "By UniProt entry, the sequences of proteins in these tests, tags left out. Where a name states a change or a piece, a line headed by the entry shows the natural chain unless it says otherwise.", "UniProt Q13393": "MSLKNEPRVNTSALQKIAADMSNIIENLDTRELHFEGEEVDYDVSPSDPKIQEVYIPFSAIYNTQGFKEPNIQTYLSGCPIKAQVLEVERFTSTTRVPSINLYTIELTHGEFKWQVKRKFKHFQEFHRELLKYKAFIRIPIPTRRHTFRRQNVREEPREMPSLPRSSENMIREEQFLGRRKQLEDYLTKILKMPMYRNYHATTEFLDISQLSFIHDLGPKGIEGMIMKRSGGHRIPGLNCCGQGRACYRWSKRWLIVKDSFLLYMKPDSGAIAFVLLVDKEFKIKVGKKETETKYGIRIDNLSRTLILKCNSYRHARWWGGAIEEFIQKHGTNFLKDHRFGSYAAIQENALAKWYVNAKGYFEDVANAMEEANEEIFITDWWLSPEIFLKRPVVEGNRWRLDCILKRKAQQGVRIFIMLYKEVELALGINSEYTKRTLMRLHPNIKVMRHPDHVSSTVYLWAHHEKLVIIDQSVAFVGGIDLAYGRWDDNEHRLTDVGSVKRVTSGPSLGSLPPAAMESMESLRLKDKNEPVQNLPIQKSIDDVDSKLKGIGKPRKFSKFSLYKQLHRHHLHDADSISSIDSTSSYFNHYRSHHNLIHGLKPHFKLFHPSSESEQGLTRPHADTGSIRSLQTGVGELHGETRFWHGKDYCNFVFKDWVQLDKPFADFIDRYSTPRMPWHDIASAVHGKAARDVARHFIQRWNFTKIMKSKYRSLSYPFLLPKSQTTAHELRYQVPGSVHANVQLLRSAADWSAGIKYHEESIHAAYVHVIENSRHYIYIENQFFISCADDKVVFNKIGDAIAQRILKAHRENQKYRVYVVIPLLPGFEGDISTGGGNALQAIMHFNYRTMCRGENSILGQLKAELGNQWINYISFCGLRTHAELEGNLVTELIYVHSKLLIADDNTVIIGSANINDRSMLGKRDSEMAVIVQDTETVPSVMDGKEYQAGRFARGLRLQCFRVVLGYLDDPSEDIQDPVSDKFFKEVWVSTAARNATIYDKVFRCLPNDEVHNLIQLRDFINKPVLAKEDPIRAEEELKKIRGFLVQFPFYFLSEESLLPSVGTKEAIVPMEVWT"}, "source": "PubChem BioAssay AID624003", "about": "(Vanderbilt Specialized Chemistry Center, 2012)", "target": "Phospholipase D1 (Homo sapiens) + Phospholipase D1 (Homo sapiens) (UniProt Q13393+Q13393)", "experiment": "PLD1 inhibition potency in cells, dose response, cell-based, Lib32, assay 2A (AID 624003)", "details": "cellular PLD1 activity assay", "data": [{"compound": "O=C(NCCN1CCC2(CC1)C(=O)NCN2c1cccc(F)c1)c1ccc(F)cc1", "values": [{"measurement": "IC50", "value": 11.8, "unit": "µM"}]}]}
